{"sequences": {"note": "Protein sequences, listed by entry. Tags and fused reporters are not part of them. Lines headed by an entry give the natural chain unless they say otherwise; changes in a name come on top.", "UniProt P52333": "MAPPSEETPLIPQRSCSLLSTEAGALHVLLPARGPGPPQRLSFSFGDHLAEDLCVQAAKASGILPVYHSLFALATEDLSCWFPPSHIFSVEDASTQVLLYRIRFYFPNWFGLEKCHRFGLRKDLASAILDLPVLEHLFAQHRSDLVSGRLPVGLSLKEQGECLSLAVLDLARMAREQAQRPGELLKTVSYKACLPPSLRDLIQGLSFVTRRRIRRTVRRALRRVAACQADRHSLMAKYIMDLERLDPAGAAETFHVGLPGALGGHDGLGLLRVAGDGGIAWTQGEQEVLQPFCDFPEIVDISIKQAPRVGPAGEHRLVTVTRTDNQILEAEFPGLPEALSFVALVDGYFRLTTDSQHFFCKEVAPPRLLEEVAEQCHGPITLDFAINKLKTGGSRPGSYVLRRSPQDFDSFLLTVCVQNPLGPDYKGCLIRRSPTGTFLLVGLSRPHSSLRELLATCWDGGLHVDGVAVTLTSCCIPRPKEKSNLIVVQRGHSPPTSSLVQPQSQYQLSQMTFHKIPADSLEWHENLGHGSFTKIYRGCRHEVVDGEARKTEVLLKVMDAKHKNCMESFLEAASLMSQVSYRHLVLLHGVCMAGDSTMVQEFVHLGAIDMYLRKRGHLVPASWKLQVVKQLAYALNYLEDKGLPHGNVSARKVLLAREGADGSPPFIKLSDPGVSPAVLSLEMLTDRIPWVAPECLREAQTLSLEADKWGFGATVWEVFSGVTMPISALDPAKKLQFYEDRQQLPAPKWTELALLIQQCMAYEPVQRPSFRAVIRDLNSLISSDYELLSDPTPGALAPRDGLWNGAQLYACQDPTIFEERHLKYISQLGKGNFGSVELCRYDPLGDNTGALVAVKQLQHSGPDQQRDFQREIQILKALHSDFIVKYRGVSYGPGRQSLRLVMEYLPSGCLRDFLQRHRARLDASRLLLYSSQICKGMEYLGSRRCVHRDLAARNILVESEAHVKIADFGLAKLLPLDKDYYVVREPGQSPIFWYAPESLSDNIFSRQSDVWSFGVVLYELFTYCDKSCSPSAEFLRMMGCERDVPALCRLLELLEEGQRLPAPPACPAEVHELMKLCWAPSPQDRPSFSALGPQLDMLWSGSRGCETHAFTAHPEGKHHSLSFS"}, "source": "patent US20240059694A1", "about": "“COMPOUND CONTAINING 1,3-BENZODIOXOL STRUCTURE AND PREPARATION METHOD AND USE THEREOF” (priority 2021, published 2024)", "molecular_target": "JAK3 (Homo sapiens (Human), UniProt P52333)", "test": "JAK3 kinase inhibitory activity experiment (Caliper EZ reader conversion rate)", "assay_type": "biochemical", "details": "in vitro kinase assay, 30 min incubation; class key in μM", "procedure": "Experimental method: The 384-well plate was divided into compound wells (starting at 10 μM, diluted three times to produce 10 concentrations), positive control wells and negative control wells; kinase solution was added to compound wells and positive control wells, and 1×kinase buffer was added to negative control wells; the solution is next centrifuged for 30 seconds and incubated at room temperature for 10 min. Add 15 μL of the mixed solution of ATP and substrate, shake and mix well after centrifugation and incubate at room temperature (30 min for JAK3, 20 min for BTK). Add stop detection solution to stop the reaction, and read the conversion rate with Caliper EZ reader, Data analysis: The formula is as follows: […]\nwhere Conversion %_sample is the conversion rate reading of the sample Conversion %_min is the average value of the negative control wells representing the conversion rate reading of the wells without enzyme addition; and Conversion %_max is the average value of the positive control wells representing the conversion rate reading of the wells without adding the compound. […]"}
{"substance": "(R)-N^1-(7-(1-(1-acryloylpiperidin-3-yl)-4-amino-1H-pyrazolo[3,4-d]pyrimidin-3-)benzo[d][1,3]dioxo heterocyclopenten-4)-N^3-(2,2,2-trifluoroethyl)isophthalamide [I-8]", "values": [{"measurement": "IC50", "result": "0.05 to 0.5", "unit": "µM"}]}
